{"source": "patent US20160192658A1", "about": "(priority 2013, published 2016)", "tested_on": "RS virus strain A2", "experiment": "microbe, parasite or virus in culture", "conditions": "human respiratory syncytial virus, HEp-2, 120 h, read-out: IC50 (50% infection inhibitory concentration)", "data": [{"smiles": "NC(=O)c1ncn([C@@H]2O[C@H](CO)[C@@H](O)[C@H]2O)n1", "note": "[Ribavirin, ribavirin]", "values": [{"measurement": "IC50", "result": 13.4, "unit": "µM"}]}]}
